The assay is described as follows: Induction of autophagy in human H4-LC3 cells assessed as number of spots of LC3-GFP after 4 hrs by DAPI staining.

SMILES strings stand for the structures. Some compounds may have been tested in ways that are not shown here.

Regarding `O=c1[nH]c2ccccc2n1C1CCN(CCCC(c2ccc(C(F)(F)F)cc2)c2ccc(C(F)(F)F)cc2)CC1`, the EC50 came to 1.2 µM.

Consider `N#CC(CCCN1CCC(n2c(=O)[nH]c3ccccc32)CC1)(c1ccccc1)c1ccccc1`, for which the EC50 turned out to be 8.2 µM.

The values are drawn from ChEMBL document CHEMBL3217438, “Diphenylbutylpiperidine-based cell autophagy inducers: Design, synthesis and SAR studies” (Medchemcomm, 2011).
